# According to paper PMC11845725:
# Protein sequences, listed by entry. Tags and fused reporters are not part of them. Residues count along the entry.
# UniProt P37173, 23-166: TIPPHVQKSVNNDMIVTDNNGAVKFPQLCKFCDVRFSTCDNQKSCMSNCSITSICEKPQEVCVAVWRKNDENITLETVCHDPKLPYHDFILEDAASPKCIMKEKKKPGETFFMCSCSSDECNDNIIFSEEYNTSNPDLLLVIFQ
# Experiments:
# [1] = target: TGM6 (TGF-β mimic 6), full-length (Heligmosomoides polygyrus); test: ITC; TGFBR2 injected into TGM6 or TGM6-D3 in the cell; 25 mM HEPES, 150 mM NaCl, 0.05% NaN3, pH 7.4; global fit of 2 (TGM6) or 3 (TGM6-D3) replicates to a simple 1:1 binding model
# [2] = target: TGM6-D3 (TGM6 domain 3) (Heligmosomoides polygyrus); test: as above
substance,measurement,setting,value
TGFBR2 extracellular domain (TGF-β type II receptor) (from UniProt P37173 23-166),Kd,[1],220 nM
same,Kd,[2],440 nM
